Experimental data from patent US20250134865A1, “METHODS OF WEIGHT LOSS IN A SUBJECT WITH ELEVATED HBA1C” (published 2025).

How the values were obtained:
[1] = test system: subjects with nonalcoholic fatty liver disease (NAFLD), elevated liver fat (>8%), and elevated body mass index (BMI); assay: Phase 2a trial: ELF; settings: overall population
[2] = test system: subjects with nonalcoholic fatty liver disease (NAFLD), elevated liver fat (>8%), and elevated body mass index (BMI); assay: Phase 2a trial: liver volume; settings: for Liver Volume, Difference in LS Mean (Compound 1 minus placebo): Day 61
[3] = Phase 2a trial: InBody body weight; settings: for InBody body weight mean change from baseline, LS Mean (SEM) / InBody body weight, Difference of LS Mean and Placebo (SEM) / mean body weight decrease compared with placebo: Day 61; for mean body weight decrease compared with placebo: 450 mg (high dose)
[4] = test system: subjects with nonalcoholic fatty liver disease (NAFLD), elevated liver fat (>8%), and elevated body mass index (BMI); assay: Phase 2a trial: VCTE (liver stiffness)
[5] = test system: glycated albumin; assay: Phase 2a trial: percent glycated albumin
[6] = Phase 2a trial: body fat compartments by MRI; settings: 61-day study
[7] = test system: subjects with nonalcoholic fatty liver disease (NAFLD), elevated liver fat (>8%), and elevated body mass index (BMI); assay: Phase 2a trial: liver fat content by MRI-PDFF; settings: for MRI-Proton Density Fat Fraction, Difference in LS Mean, Compound 1-Placebo / Responder (>30% liver fat reduction by MRI-PDFF), share of subjects: Day 61
[8] = 150 mg, HbA1c 5.7% to 9.0% subgroup
[9] = 300 mg, HbA1c 5.7% to 9.0% subgroup
[10] = 450 mg, HbA1c 5.7% to 9.0% subgroup
[11] = 150 mg, elevated HbA1c subgroup
[12] = 150 mg, total patient population
[13] = 300 mg, elevated HbA1c subgroup
[14] = 300 mg, total patient population
[15] = 450 mg, elevated HbA1c subgroup
[16] = 450 mg, total patient population
[17] = 150 mg, HbA1c 5.7%-9.0% subgroup
[18] = 300 mg, HbA1c 5.7%-9.0% subgroup
[19] = 450 mg, HbA1c 5.7%-9.0% subgroup
[20] = 15 mg (so in the source), HbA1c 5.7%-9.0% subgroup

## Cn1c(COc2ccc([N+](=O)[O-])cc2[N+](=O)[O-])cnc1[N+](=O)[O-]
[1]; 150 mg
  ELF, LS mean change at day 61: 0.41
[1]; 300 mg
  ELF, LS mean change at day 61: 0.35
[1]; 450 mg
  ELF, LS mean change at day 61: 0.51
[2]; [8]
  Liver Volume, Difference in LS Mean (Compound 1 minus placebo): -0.15 L
  Liver Volume at Day 61, Mean: 2.26 L
  Liver Volume at Day 61, Median: 2.34 L
  Liver Volume, LS mean change from baseline at Day 61: -0.16 L
[2]; 150 mg, all subjects
  Liver Volume, Difference in LS Mean (Compound 1 minus placebo): -0.08 L
  Liver Volume at Day 61, Mean: 2.18 L
  Liver Volume at Day 61, Median: 2.13 L
[2]; 150 mg, all subjects / overall population
  Liver Volume, LS mean change from baseline at Day 61: -0.08 L
[2]; [9]
  Liver Volume, Difference in LS Mean (Compound 1 minus placebo): -0.17 L
  Liver Volume at Day 61, Mean: 2.22 L
  Liver Volume at Day 61, Median: 2.01 L
  Liver Volume, LS mean change from baseline at Day 61: −0.17^a L and −0.17 L
[2]; 300 mg, all subjects
  Liver Volume, Difference in LS Mean (Compound 1 minus placebo): -0.14 L
  Liver Volume at Day 61, Mean: 1.96 L
  Liver Volume at Day 61, Median: 1.87 L
[2]; 300 mg, all subjects / overall population
  Liver Volume, LS mean change from baseline at Day 61: -0.14 L
[2]; [10]
  Liver Volume, Difference in LS Mean (Compound 1 minus placebo): -0.14 L
  Liver Volume at Day 61, Mean: 2.17 L
  Liver Volume at Day 61, Median: 2.27 L
  Liver Volume, LS mean change from baseline at Day 61: -0.15 L
[2]; 450 mg, all subjects
  Liver Volume, Difference in LS Mean (Compound 1 minus placebo): -0.14 L
  Liver Volume at Day 61, Mean: 2.07 L
  Liver Volume at Day 61, Median: 2.01 L
[2]; 450 mg, all subjects / overall population
  Liver Volume, LS mean change from baseline at Day 61: -0.14 L
[3]; [11]
  InBody body weight mean change from baseline, LS Mean (SEM): −0.73 (1.453) lbs
  InBody body weight, Difference of LS Mean and Placebo (SEM): −1.14 (2.066) lbs
[3]; [12]
  InBody body weight mean change from baseline, LS Mean (SEM): −1.14 (1.028) lbs
  InBody body weight, Difference of LS Mean and Placebo (SEM): −0.93 (1.467) lbs
[3]; [13]
  InBody body weight mean change from baseline, LS Mean (SEM): −3.10 (1.343) lbs
  InBody body weight, Difference of LS Mean and Placebo (SEM): −3.52 (1.990) lbs
[3]; [14]
  InBody body weight mean change from baseline, LS Mean (SEM): −3.92 (0.981) lbs
  InBody body weight, Difference of LS Mean and Placebo (SEM): −3.71 (1.435) lbs
[3]; overall
  mean body weight decrease compared with placebo: 6 pounds
[3]; subgroup with elevated HbA1c
  mean body weight decrease compared with placebo: 10 pounds
[3]; [15]
  InBody body weight mean change from baseline, LS Mean (SEM): −9.35 (1.341) lbs
  InBody body weight, Difference of LS Mean and Placebo (SEM): −9.77 (1.985) lbs
[3]; [16]
  InBody body weight mean change from baseline, LS Mean (SEM): −6.04 (1.034) lbs
  InBody body weight, Difference of LS Mean and Placebo (SEM): −5.83 (1.471) lbs
[3]; 450 mg, overall population (FAS)
  Percent weight change at day 61: −2.55%
[3]; 450 mg, subjects with high HbA1c
  Percent weight change at day 61: −4%
[4]; 150 mg, HbA1c subgroup
  VCTE, LS mean change at day 61: −1.27 kPa
[4]; 150 mg, overall population
  VCTE, LS mean change at day 61: −.146 kPa
[4]; 300 mg, HbA1c subgroup
  VCTE, LS mean change at day 61: −2.84 kPa
[4]; 300 mg, overall population
  VCTE, LS mean change at day 61: −2.09 kPa
[4]; 450 mg, HbA1c subgroup
  VCTE, LS mean change at day 61: −0.66 kPa
[4]; 450 mg, overall population
  VCTE, LS mean change at day 61: −1.35 kPa
[5]; 150 mg, FAS population
  Percent Glycated Albumin, change from baseline to Day 61, Mean: −0.18%
  Percent Glycated Albumin, change from baseline to Day 61, Median: 0.1%
[5]; [17]
  Percent Glycated Albumin, change from baseline to Day 61, Mean: −0.78%
  Percent Glycated Albumin, change from baseline to Day 61, Median: 0.15%
[5]; 300 mg, FAS population
  Percent Glycated Albumin, change from baseline to Day 61, Mean: −0.66%
  Percent Glycated Albumin, change from baseline to Day 61, Median: −0.55%
[5]; [18]
  Percent Glycated Albumin, change from baseline to Day 61, Mean: −0.36%
  Percent Glycated Albumin, change from baseline to Day 61, Median: −0.2%
[5]; 450 mg, FAS population
  Percent Glycated Albumin, change from baseline to Day 61, Mean: −1.49%
  Percent Glycated Albumin, change from baseline to Day 61, Median: −1.25%
[5]; [19]
  Percent Glycated Albumin, change from baseline to Day 61, Mean: −1.73%
  Percent Glycated Albumin, change from baseline to Day 61, Median: −1.7%
[6]
  Fat loss by compartment by MRI: Fat loss was observed in hepatic, visceral, and subcutaneous compartments
[7]; [20]
  MRI-PDFF change from baseline at Day 61, Difference of LS Mean and Placebo: −5.83
  MRI-PDFF mean change from baseline at Day 61, LS Mean (ANCOVA): −5.35
[7]; 150 mg once daily oral, HbA1c 5.7%-9.0% subgroup
  MRI-PDFF percent change from baseline to Day 61, Mean: −36.488%
[7]; [8]
  MRI-Proton Density Fat Fraction, Difference in LS Mean, Compound 1-Placebo: −5.83%
  MRI-Proton Density Fat Fraction at Day 61, Mean: 16.2%
[7]; 150 mg, all subjects
  MRI-Proton Density Fat Fraction, Difference in LS Mean, Compound 1-Placebo: −5.21%
[7]; 150 mg, FAS population
  Non-responder (MRI-PDFF), share of subjects: 10 (50.0%)
  Responder (>30% liver fat reduction by MRI-PDFF), share of subjects: 40%
[7]; 150 mg, FAS population, listed as CM1
  Responder (>30% liver fat reduction by MRI-PDFF), share of subjects: 8 (40.0%)

Several values for one entry are separate records, joined by “and”; a condition that tells them apart may be missing. Identical values can stand only once. Marks after values point to notes of the source that are not given here.
